# Test results as given in patent US9630956B2, “Compounds useful as inhibitors of ATR kinase” (Vertex Pharmaceuticals Incorporated, priority 2010, dated 2017).
# Protein sequences, listed by entry. Tags and fused reporters are not part of them.
# UniProt Q13535, whole entry: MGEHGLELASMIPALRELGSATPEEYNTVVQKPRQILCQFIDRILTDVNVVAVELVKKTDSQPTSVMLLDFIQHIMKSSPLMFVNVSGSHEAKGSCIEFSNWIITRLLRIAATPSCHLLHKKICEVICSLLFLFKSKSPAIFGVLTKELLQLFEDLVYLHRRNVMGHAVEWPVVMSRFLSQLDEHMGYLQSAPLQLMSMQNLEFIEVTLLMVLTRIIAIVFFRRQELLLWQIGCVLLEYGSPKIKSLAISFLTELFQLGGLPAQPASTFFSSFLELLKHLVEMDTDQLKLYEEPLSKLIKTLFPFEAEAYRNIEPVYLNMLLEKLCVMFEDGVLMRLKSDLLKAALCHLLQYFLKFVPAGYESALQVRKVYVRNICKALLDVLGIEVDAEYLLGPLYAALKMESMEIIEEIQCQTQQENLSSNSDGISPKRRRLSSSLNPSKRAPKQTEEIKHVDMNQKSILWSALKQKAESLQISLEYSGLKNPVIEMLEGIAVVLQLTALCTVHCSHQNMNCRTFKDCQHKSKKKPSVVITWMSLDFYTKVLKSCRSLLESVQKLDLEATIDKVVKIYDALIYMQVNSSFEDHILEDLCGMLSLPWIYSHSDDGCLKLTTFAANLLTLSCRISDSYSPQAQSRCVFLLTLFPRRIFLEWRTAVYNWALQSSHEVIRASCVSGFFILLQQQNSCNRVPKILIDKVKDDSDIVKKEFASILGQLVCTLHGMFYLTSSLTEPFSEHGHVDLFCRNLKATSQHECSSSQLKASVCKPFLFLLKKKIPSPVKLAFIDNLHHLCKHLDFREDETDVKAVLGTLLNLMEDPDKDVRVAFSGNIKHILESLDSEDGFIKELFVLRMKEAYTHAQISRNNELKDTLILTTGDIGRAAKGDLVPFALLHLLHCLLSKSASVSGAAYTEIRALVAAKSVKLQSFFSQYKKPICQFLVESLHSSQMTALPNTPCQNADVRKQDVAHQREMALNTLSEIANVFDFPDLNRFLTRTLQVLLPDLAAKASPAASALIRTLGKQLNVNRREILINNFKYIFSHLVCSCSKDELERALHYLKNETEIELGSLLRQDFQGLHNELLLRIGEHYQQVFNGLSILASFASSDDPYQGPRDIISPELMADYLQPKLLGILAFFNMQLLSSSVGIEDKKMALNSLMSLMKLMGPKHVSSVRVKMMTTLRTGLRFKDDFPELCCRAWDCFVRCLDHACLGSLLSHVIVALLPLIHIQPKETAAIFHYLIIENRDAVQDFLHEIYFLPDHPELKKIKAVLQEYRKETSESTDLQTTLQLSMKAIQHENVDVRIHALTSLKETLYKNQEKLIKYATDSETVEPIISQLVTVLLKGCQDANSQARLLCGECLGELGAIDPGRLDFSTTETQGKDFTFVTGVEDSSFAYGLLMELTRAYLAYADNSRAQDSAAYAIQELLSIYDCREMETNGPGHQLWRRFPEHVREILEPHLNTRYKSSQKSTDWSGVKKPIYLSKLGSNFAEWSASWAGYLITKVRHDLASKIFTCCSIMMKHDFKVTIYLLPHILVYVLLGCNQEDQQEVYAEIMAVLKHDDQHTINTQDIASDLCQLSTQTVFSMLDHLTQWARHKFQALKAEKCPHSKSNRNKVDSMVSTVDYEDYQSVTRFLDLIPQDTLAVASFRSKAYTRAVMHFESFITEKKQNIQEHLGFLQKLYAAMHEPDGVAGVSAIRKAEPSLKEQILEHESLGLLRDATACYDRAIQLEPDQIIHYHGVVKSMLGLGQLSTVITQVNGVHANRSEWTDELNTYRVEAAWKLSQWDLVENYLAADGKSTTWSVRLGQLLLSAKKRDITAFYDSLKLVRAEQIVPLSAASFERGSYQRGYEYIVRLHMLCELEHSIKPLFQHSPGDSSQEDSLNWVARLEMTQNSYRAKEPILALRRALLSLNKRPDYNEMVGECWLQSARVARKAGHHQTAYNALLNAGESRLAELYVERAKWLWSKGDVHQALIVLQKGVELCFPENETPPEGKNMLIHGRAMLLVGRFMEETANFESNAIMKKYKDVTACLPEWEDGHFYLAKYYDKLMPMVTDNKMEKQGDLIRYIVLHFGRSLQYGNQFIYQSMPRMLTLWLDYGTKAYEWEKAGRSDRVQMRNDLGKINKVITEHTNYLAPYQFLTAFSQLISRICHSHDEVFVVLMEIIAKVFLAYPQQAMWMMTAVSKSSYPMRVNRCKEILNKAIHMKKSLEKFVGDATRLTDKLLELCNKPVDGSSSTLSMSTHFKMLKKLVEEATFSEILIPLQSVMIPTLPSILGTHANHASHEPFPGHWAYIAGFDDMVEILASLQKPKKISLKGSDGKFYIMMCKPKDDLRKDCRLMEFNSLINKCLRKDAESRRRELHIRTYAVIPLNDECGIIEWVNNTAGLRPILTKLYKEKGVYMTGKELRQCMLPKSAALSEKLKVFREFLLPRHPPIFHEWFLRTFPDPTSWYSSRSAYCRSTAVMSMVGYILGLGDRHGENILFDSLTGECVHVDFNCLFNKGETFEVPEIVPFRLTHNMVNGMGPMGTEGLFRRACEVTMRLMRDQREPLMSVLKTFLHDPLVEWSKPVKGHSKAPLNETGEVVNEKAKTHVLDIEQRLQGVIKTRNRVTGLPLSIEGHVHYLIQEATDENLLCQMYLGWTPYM
# What was measured:
# full-length ATR = full-length ATR (Homo sapiens (Human), UniProt Q13535); test: ATR Inhibition Assay (radioactive-phosphate incorporation); conditions: read-out: Ki Value; ATR Inhibition Ki(app); 10 μM ATP, 800 μM target peptide, 5 nM full-length ATR, 25° C.
# [1] = system: HCT116 colorectal cancer cells; test: Cisplatin Sensitization Assay (96h cell viability MTS); conditions: concentration of compound required to reduce the IC50 of Cisplatin alone by at least 3-fold, 96h MTS
# Description: Compounds can be screened for their ability to sensitize HCT116 colorectal cancer cells to Cisplatin using a 96h cell viability (MTS) assay. […] Compounds and Cisplatin are then both added simultaneously to the cell media in 2-fold serial dilutions from a top final concentration of 10 μM as a full matrix of concentrations in a final cell volume of 200 μl, and the cells are then incubated at 37° C. in 5% CO2. After 96h, 40 μl of […] (Promega G358a) is added to each well and the cells are incubated for 1 h at 37° C. in 5% CO2. Finally, absorbance is measured at 490 nm using a SpectraMax Plus 384 reader (Molecular Devices) and the concentration of compound required to reduce the IC50 of Cisplatin alone by at least 3-fold (to 1 decimal place) can be reported (CP3 shift).
Ki (full-length ATR) [nM],SMILES,CP3 shift [1] [µM]
< 5,CNCc1ccc(-c2cc(-c3nc(-c4ccc(=O)n(CCO)c4)cnc3N)on2)cc1,–
–,CC(C)n1cc(-c2cnc(N)c(-c3cc(-c4ccc(CNC(C)(C)C)cc4)no3)n2)ccc1=O,0.312
–,CC(N)c1cccc(-c2cc(-c3nc(-c4ccc(=O)n(C5CCCC5)c4)cnc3N)on2)c1 (stereo not shown),0.039
–,CNCc1ccc(-c2cc(-c3nc(-c4ccc(=O)n(C5CCCC5)c4)cnc3N)on2)cc1,0.078
